From patent US20260176343A1 (UCL BUSINESS, published 2026)

Experiments:
Assay in all cases: cell-based or functional assay
[1] = target: FVIII-mimetic bispecific tandem-scFv containing the thrombin-sensitive peptide LTPRGVRL
[2] = target: FVIII-mimetic bispecific tandem-scFv containing the human Factor V cleavage site WYLRSNNG
[3] = target: FVIII-mimetic bispecific tandem-scFv containing the thrombin-sensitive peptide LTPRLVRL

In the case of “human α-thrombin (from UniProt P00734 328-622) (enzyme)”, the residual FVIII mimetic activity after 20 min of exposure to α-thrombin (% residual activity) [1] is reported as 17.5, the residual FVIII mimetic activity after 20 min of exposure to α-thrombin (% retained FVIII mimetic activity) [2] is reported as 88.7 and the residual FVIII mimetic activity after 20 min of exposure to α-thrombin (% residual FVIII mimetic activity) [3] is reported as 56.7.
